From patent publication US12157727B2, “Substituted tetrahydroquinolin compounds as indoleamine 2,3-dioxygenase (IDO) inhibitors” (Merck Sharp & Dohme LLC, priority 2019, dated 2024)
pIC50: −log10 of the molar value.

The chains behind the UniProt entries cited, without tags or fusion partners.
UniProt P14902, whole entry: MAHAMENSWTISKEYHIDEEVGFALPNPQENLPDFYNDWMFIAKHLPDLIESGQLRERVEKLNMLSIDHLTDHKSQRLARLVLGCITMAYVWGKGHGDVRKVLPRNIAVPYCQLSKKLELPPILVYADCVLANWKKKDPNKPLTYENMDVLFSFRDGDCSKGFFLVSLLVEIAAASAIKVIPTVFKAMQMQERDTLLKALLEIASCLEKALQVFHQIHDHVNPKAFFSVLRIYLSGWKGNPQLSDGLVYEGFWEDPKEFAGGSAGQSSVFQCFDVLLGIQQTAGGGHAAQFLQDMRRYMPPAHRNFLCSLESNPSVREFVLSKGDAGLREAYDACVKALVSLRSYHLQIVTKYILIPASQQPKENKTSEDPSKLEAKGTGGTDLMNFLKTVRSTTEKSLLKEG

target: IDO1 (Homo sapiens, UniProt P14902); test: IDO1 Cellular Assay in HeLa Cells Stimulated with IFNγ; format: cell-based; settings: HeLa cells stimulated with IFNγ 100 ng/mL, 300 uM L-tryptophan, about 48 hours; read-out: IDO1 HeLa Cell Assay, IC50

Going from `Cc1nccc(N2CCCc3nc(C4(c5nc6ccc(Cl)cc6[nH]5)CC4)ccc32)n1` [Example 39, 6-[1-(6-chloro-1H-benzimidazol-2-yl)cyclopropyl]-1-(2-methylpyrimidin-4-yl)-1,2,3,4-tetrahydro-1,5-naphthyridine] to `FC(F)(F)c1nccc(N2CCCc3nc(C4(c5nc6cc(Cl)ccc6[nH]5)CCC4)ccc32)n1` [Example 33, 6-[1-(5-chloro-1H-benzimidazol-2-yl)cyclobutyl]-1-[2-(trifluoromethyl)pyrimidin-4-yl]-1,2,3,4-tetrahydro-1,5-naphthyridine], the pIC50 rises from 8.04 to 8.47 (0.43 log units).

Compared with `COC(=O)N1CCCc2nc(C3(c4nc5cc(C(F)(F)F)cnc5[nH]4)CCC3)ccc21` [Example 18, methyl 6-(1-(6-(trifluoromethyl)-3H-imidazo[4,5-b]pyridin-2-yl)cyclobutyl)-3,4-dihydro-1,5-naphthyridine-1(2H),-carboxylate], `Cc1nccc(N2CCCc3nc(C4(c5nc6cc(C(F)(F)F)cnc6[nH]5)CCC4)ccc32)n1` [Example 30, 1-(2-methylpyrimidin-4-yl)-6-(1-(6-(trifluoromethyl)-3H-imidazo[4,5-b]pyridin-2-vyl)cyclobutyl)-1,2,3,4-tetrahydro-1,5-naphthyridine] is 0.34 log units lower in pIC50: 8.70 for the first, 8.36 for the second. The first is the more potent here.

First: N#Cc1cnc2nc(C3(c4ccc5c(n4)CCCN5C(=O)OC4CC4)CCC3)[nH]c2c1 [Example 24, cyclopropyl 6-[1-(6-cyano-1H-imidazo[4,5-b]pyridin-2-yl)cyclobutyl]-3,4-dihydro-1,5-naphthyridine-1(2H)-carboxylate]
Second: O=C(OC1CC1)N1CCCc2nc(C3(c4nc5ncc(Cl)cc5[nH]4)CCC3)ccc21 [Example 22, cyclopropyl 6-[1-(6-chloro-1H-imidazo[4,5-b]pyridin-2-yl)cyclobutyl]-3,4-dihydro-1,5-naphthyridine-1(2H)-carboxylate]
The pIC50 of the first is 0.38 log units lower: 8.48 for the first, 8.86 for the second. The second is the more potent here.

First: FC(F)(F)c1cnc2[nH]c(C3(c4ccc5c(n4)CCCN5c4ccnc(C(F)(F)F)n4)CCC3)nc2c1 [Example 32, 6-{1-[6-(trifluoromethyl)-3H-imidazo[4,5-b]pyridin-2-yl]cyclobutyl}-1[2-(trifluoromethyl)pyrimidin-4-yl]-1,2,3,4-tetrahydro-1,5-naphthyridine]
Second: FC(F)(F)c1nccc(N2CCCc3nc(C4(c5nc6cc(Cl)cnc6[nH]5)CCC4)ccc32)n1 [Example 35, 6-[1-(6-chloro-3H-imidazo[4,5-b]pyridin-2-yl)cyclobutyl]-1-[2-(trifluoromethyl)pyrimidin-4-yl]-1,2,3,4-tetrahydro-1,5-naphthyridine]
The pIC50 of the first is 0.68 log units lower: 7.89 for the first, 8.57 for the second. The second is the more potent here.

Going from `N#Cc1ccc2nc(C3(c4ccc5c(n4)CCCN5c4ccnc(C(F)(F)F)n4)CC4(CC4)C3)[nH]c2c1` [Example 41, 2-(5-(5-(2-(trifluoromethyl)pyrimidin-4-yl)-5,6,7,8-tetrahydro-1,5-naphthyridin-2-yl)spiro[2,3]hexan-5-yl)-1H-benzo[d]imidazole-6-carbonitrile] to `FC(F)(F)c1cnc2nc(C3(c4ccc5c(c4)CCCN5c4ccncn4)CCC3)[nH]c2c1` [Example 12, 1-(pyrimidin-4-yl)-6-(1-(6-(trifluoromethyl)-1H-imidazo[4,5-b]pyridin-2-yl)cyclobutyl)-1,2,3,4-tetrahydroquinoline], the pIC50 falls from 8.50 to 7.98 (0.52 log units).

First: O=C([C@H]1CCCCO1)N1CCCc2nc(C3(c4nc5ncc(C(F)(F)F)cc5[nH]4)CCC3)ccc21 [Example 16, (R)-(tetrahydro-2H-pyran-2-yl)(6-(1-(6-(trifluoromethyl)-1H-imidazo[4,5-b]pyridin-2-yl)cyclobutyl)-3,4-dihydro-1,5-naphthyridin-1(2H)-yl)methanone]
Second: O=C(c1ccccc1Cl)N1CCCc2nc(C3(c4nc5ncc(C(F)(F)F)cc5[nH]4)CCC3)ccc21 [Example 17, (2-chlorophenyl)[6-{1-[6-(trifluoromethyl)-1H-imidazo[4,5-b]pyridin-2-yl]cyclobutyl}-3,4-dihydro-1,5-naphthyridin-1(2H)-yl]methanone]
The pIC50 of the first is 0.26 log units lower: 8.76 for the first, 9.02 for the second.

Going from `CC(c1ccc2c(c1)CCCN2C(=O)OC1CC1)c1nc2ncc(Cl)cc2[nH]1` (centres unmarked) [Example 6, Cyclopropyl 6-(1-(6-chloro-1H-imidazo[4,5-b]pyridin-2-yl)ethyl)-3,4-dihydroquinoline-1(2H)-carboxylate] to `C[C@H](c1ccc2c(n1)CCCN2C(=O)OC1CC1)c1nc2ccc(Cl)cc2[nH]1` [Example 27, cyclopropyl (R)-6-(1-(6-chloro-1H-benzo[d]imidazol-2-yl)ethyl)-3,4-dihydro-1,5-naphthyridine-1(2H)-carboxylate], the pIC50 rises from 8.37 to 8.64 (0.27 log units).

Going from `C[C@@H](c1ccc2c(n1)CCCN2C(=O)OC1CC1)c1nc2ccc(Cl)cc2[nH]1` [Example 26, cyclopropyl (S)-6-(1-(6-chloro-1H-benzo[d]imidazol-2-yl)ethyl)-3,4-dihydro-1,5-naphthyridine-1(2H)-carboxylate] to `N#Cc1ccc2nc(C3(c4ccc5c(c4)CCCN5C(=O)C4CC4)CCC3)[nH]c2c1` [Example 4, 2-{1-[1-(cyclopropane-carbonyl)-1,2,3,4-tetrahydroquinolin-6-yl]cyclobutyl}-1H-benzimidazole-6-carbonitrile], the pIC50 falls from 9.01 to 8.28 (0.73 log units). The first is the more potent here.

In the case of `COC(=O)N1CCCc2cc(C3(c4nc5ncc(C(F)(F)F)cc5[nH]4)CCC3)ccc21` [Example 5, Methyl 6-(1-(6-(trifluoromethyl)-1H-imidazo[4,5-b]pyridin-2-yl)cyclobutyl)-3,4-dihydroquinoline-1(2H)-carboxylate], the pIC50 was 8.56.
